Patent publication US11370785B2, “Multicyclic compounds as farnesoid X receptor modulators” (BRISTOL-MYERS SQUIBB COMPANY, priority 2017, dated 2022)

The chains behind the UniProt entries cited, without tags or fusion partners. Residues count along the entry.
UniProt Q96RI1, 262-486 limits assumed: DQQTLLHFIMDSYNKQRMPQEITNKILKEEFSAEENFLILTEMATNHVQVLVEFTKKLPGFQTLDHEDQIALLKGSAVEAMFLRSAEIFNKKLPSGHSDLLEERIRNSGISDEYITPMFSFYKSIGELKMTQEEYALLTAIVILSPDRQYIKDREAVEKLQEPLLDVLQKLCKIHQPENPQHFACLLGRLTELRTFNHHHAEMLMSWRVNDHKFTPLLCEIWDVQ

What follows are compounds tested against human FXR (Homo sapiens, UniProt Q96RI1) (assay: transient human FXR/Gal4-luciferase reporter assay). Conditions: read-out: FXR EC50; Gal4-hFXR reporter in HEK293 cells; relative to 8 μM GW-4064.
Experimental: The exemplified compounds of the present invention were tested in the transient human FXR/Gal4-luciferase reporter assay, and assay results were reported in Table 1 together with other analytical data.
A Gal4-hFXR fusion construct reporter system was used as the primary assay to characterize compound activity. A construct including 5 copies of the Gal4 promoter response element upstream of a firefly luciferase reporter cDNA was stably expressed in HEK293 cells. This reporter cell line was maintained in Dulbecco's Modified Eagle's medium (DMEM; Gibco) supplemented with 1% penicillin-streptomycin (P/S) solution, 500 μg/mL Zeocin and 10% charcoal/dextran-treated fetal bovine serum (cs-FBS) at 37° C. in a humidified 5% CO2 atmosphere. Another plasmid was constructed in which the human cytomegalovirus promoter in the pcDNA3.1 vector directs the expression of the cDNA encoding a fusion protein comprised of the DNA binding domain from the Gal4 transcription factor fused to the ligand binding domain from human FXR.
The day prior to transfection, the reporter cells in culture are detached from the plate with trypsin and plated into a T75 flask at a sufficient density to achieve approximately 90% confluence the next morning. […] This protocol can be scaled up, and the transiently transfected cells can be cryopreserved in an assay-ready format.
For compound testing, 100 nL of the compounds (serial dilutions in DMSO) are dispensed with an Echo acoustic dispenser (Labcyte) into the wells of a Corning/Costar clear bottom 384-well white plate. The transfected cells are harvested, counted, and diluted such that 10-25,000 cells in 25 μL are plated into each well of the 384-well compound assay plate. […] The next morning 25 μL of Steady-Glo (Promega) are added to each well of the plate, the mixture is incubated for 15 min. with shaking, and luminescence is measured on an Envision (Perkin Elmer) plate reader. […]
In the case of `Cn1cc(C(=O)O)c2ccc(N3CCC4(CC(=Cc5c(-c6c(Cl)cccc6Cl)noc5C5CC5)C4)C3)cc21` (stereo not drawn), the EC50 is reported as 33 nM. Work on `Cn1cc(C(=O)O)c2ccc(N3CCC4(CC(=Cc5c(-c6c(Cl)cccc6Cl)noc5C5CC5)C4)C3)nc21` (stereo not drawn) yielded an EC50 of 29 nM. Work on `O=C(O)c1ccc2cc(N3CCC4(CC(=Cc5c(-c6c(Cl)cccc6Cl)noc5C5CC5)C4)C3)ccc2n1` (stereo not drawn) yielded an EC50 of 21 nM.
